For one substance, major metabolites identified results are on record in patent US8299089B2, “Multi-arm polymeric conjugates of 7-ethyl-10-hydroxycamptothecin for treatment of breast, colorectal, pancreatic, ovarian and lung cancers” (priority 2006, dated 2012).

In this data set the test system is rat hepatocytes. The experiment in a line: In vitro metabolism in rat hepatocytes. The format is in vitro ADME. Conditions: 2 hours, pH 7.5, 37° C. On the procedure: PEG-Gly-(7-ethyl-10-hydroxycamptothecin) was incubated with rat hepatocytes for 2 hours, pH 7.5, 37° C.

Take “^40k4arm-PEG-Gly(20)-(7-ethyl-10-hydroxycamptothecin) [Compound 9]”: the major metabolites identified was 7-ethyl-10-hydroxycamptothecin and 7-ethyl-10-hydroxycamptothecin-Glucuronide.
